## Apparent affinities of Ab-14 variants for a coronavirus HR2 peptide

From the AlphaSeq antibody data of Li et al. 2023 (doi:10.1038/s41467-023-39022-2), copy in the FLAb collection.

Antigen: PDVDLGDISGINAS, a 14-residue peptide of the SARS-CoV-2 spike HR2 region.

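The starting antibody came from a phage panning campaign against this peptide. This is the validation round: designs drawn from the data on random variants, tested in the same kind of assay. Their group label is 14H_En_HC (En: ensemble of fine-tuned language models; HC: hill climbing; a sequence that several methods proposed may carry one label only). The scFvs were displayed on barcoded MATa yeast, the peptide on MATalpha yeast. The frequency of each diploid, read from paired DNA barcodes, reflects how well the two displayed proteins bind. Read counts were normalised to the haploid input and turned into Kd by a linear fit to BCL2-family pairs of known affinity, for each replicate. Each pool was mated in six replicate cultures.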

Each scFv is VH, the linker GGGGSGGGGSGGGGS, VL, as in the parent Ab-14, and differs from it in the CDRs of the heavy chain only.
VH: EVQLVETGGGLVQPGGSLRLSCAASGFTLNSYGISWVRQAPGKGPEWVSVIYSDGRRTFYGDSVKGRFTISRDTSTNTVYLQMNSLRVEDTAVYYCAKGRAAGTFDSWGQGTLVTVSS
VL: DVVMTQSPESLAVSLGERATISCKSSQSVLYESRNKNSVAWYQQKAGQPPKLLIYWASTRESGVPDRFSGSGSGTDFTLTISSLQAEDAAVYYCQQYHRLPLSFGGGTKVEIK

Variants are written as CDR1, CDR2 and CDR3 of the heavy chain (limits as in the source). Parent: GFTLNSYGIS, VIYSDGRRTFYGDSVK, GRAAGTFDS. The read-out is the apparent dissociation constant on a log10 scale (nM): the lower, the stronger. Where no diploid with the target was found in that replicate, the entry reads "ND": below detection, most likely a poor binder, though not proof of it.

| CDR-H1 | CDR-H2 | CDR-H3 | replicates, log10 nM | signal with controls |
|---|---|---|---|---|
| GFDLDEYGIS | VIYADGRRTFYADSVK | GTNAGTFDL | -1.25 -0.65 -0.91 -1.39 -1.08 -0.99 | 0/18 |
| GFDLNEYGIS | VIYADGRRTAYADSVK | GEIAGTFFF | ND ND ND ND ND ND | 0/18 |
| GFDLNEYGIS | VIYADGRRTAYIDSVK | GNAAGTFDS | 0.01 -0.10 -0.44 -0.53 -0.93 1.00 | 0/18 |
| GFDLNEYGIS | VIYADGMRTGYTDSVK | GNEAGTFDS | ND 0.62 ND -1.09 1.03 ND | 0/18 |
| GFDLESYGIS | VIYADGRRTFYSDSVK | GANAGTFDI | -0.15 -0.20 -0.29 -0.67 -0.60 -0.17 | 0/18 |
| GFDLNEYGIS | VIYADGQRTFYADSVK | GNEAGTFDM | ND ND ND ND ND ND | 0/18 |
| GFNLDEYGIS | VIYADGRRTFYADSVK | GSEAGTFDT | -0.52 -0.57 -0.26 -0.41 -0.60 -0.52 | 0/18 |
| GFDLNEYGIS | VIYADGMRTAYTDSVK | GNIAGTFDS | -0.14 -0.18 -0.31 -0.45 -0.38 -0.18 | 0/18 |
| GFDLNEYGIS | VIYADGMRTFYTDSVK | GGNAGTFDS | -0.04 -0.51 -0.21 -0.86 0.04 0.04 | 0/18 |
| GFDLNEYGIS | VIYADGVRTFYIDSVK | GTNAGTFDV | -0.49 -0.68 -0.79 -0.66 -0.54 -0.43 | 1/18 (2.23) |
| GFSLDEYGIS | VIYADGRRTFYVDDVK | GNVAGTFDV | 1.32 0.74 2.58 ND ND ND | 0/18 |
| GFDLESYGIS | VIYADGRRTFYSDSVK | GENAGTFDI | 0.25 -0.40 -0.36 -0.37 -0.39 -0.20 | 0/18 |
| GFDLNEYGIS | VIYADGRRTFYKDSVK | GANGGTFDV | 0.54 0.16 0.21 0.25 0.28 0.29 | 0/18 |
| GFDLNEYGIS | VIYADGRRTFYIDSVK | GEDAGTFNV | 0.05 -0.17 -0.27 -0.25 -0.15 -0.08 | 0/18 |
| GFDLESYGIS | VIYADGSRTAYADSVK | GNVAGTFDV | -0.39 -0.40 -0.27 -0.64 -0.43 -0.35 | 1/18 (3.41) |
| GFDLNEYGIS | VIYADGRRTFYSDSVK | GEIAGTFDI | -0.50 -0.39 -0.67 -0.72 -0.70 -0.12 | 0/18 |
| GFDLNEYGIS | VIYADGFRTFYADSVK | GEVAGTFDS | -0.03 -0.22 -0.65 -0.31 -0.45 0.36 | 0/18 |
| GFDLNEYGIS | VIYADGMRTFYSDSVK | GTVAGTFDV | -0.72 -0.59 -0.63 -0.40 -0.36 -0.67 | 0/18 |
| GFDLNEYGIS | VIYADGRRTFYTDSVK | GTDAGTFDV | ND ND ND ND ND ND | 0/18 |
| GFNLDEYGIS | VIYADGQRTFYADDVK | GNVAGTFDV | -0.10 -0.51 -0.65 -0.67 -0.59 -0.40 | 0/18 |
| GFDLDEYGIS | VIYADGRRTFYADSVK | GTTAGTFDA | 0.00 -0.32 -0.34 -0.56 -0.31 -0.29 | 0/18 |
| GFDLNEYGIS | VIYADGMRTFYSDSVK | GNVAGTFDS | -0.26 0.07 -0.12 -0.29 -0.13 -0.20 | 1/18 (2.76) |
| GFDLNEYGIS | VIYADGRRTFYTDSVK | GAFAGTFDV | -0.52 -0.72 -0.75 -0.79 -0.87 -0.32 | 0/18 |
| GFDLNEYGIS | VIYADGRRTFYADSVK | GKVAGTFVS | 0.01 -0.05 -0.05 -0.19 -0.08 0.04 | 0/18 |
| GFDLDEYGIS | VIYADGRRTFYADSVK | GNVAGTFDQ | -0.23 -0.35 -0.22 -0.21 -0.49 -0.16 | 1/18 (3.88) |
| GFNLNEYGIS | VIYADGRRTFYADSVK | GQVAGTFDV | -0.81 -0.36 -1.18 -0.94 -1.18 0.17 | 0/18 |
| GFDLDEYGIS | VIYADGRRTAYADSVK | GELAGTFFS | 0.09 -0.26 -0.11 -0.17 -0.26 0.17 | 0/18 |
| GFDLEDYGIS | VIYADGRRTQYADSVK | GEQAGTFDL | 0.54 0.10 0.69 0.08 1.24 0.70 | 0/18 |
| GFTLDEYGIS | VIYADGMRTFYADSVK | GEAAGTFDI | 0.22 0.20 -0.39 -0.23 0.29 0.53 | 0/18 |
| GFDLNEYGIS | VIYADGRRTAYVDSVK | GEAAGTFDQ | -0.24 -0.62 -0.98 -0.71 -0.62 -0.57 | 0/18 |
| GFDLNEYGIS | VIYADGRRTFYADSVK | GTNGGTFDV | 1.21 0.43 0.27 0.61 1.02 0.70 | 0/18 |
| GFDLNEYGIS | VIYADGMRTFYVDSVK | GQVAGIFNV | -0.08 -0.54 -0.07 -0.06 0.02 0.06 | 0/18 |
| GFDLNEYGIS | VIYADGRRTFYSDSVK | GNVAGTFDT | 0.06 -0.45 -0.53 -0.61 -0.48 -0.49 | 0/18 |
| GFDLNEYGIS | VIYADGRRTAYSDSVK | GANAGTFDQ | -0.50 -0.05 -0.52 -0.36 0.03 -0.25 | 2/18 (1.64) |
| GFDLNEYGIS | VIYADGKRTAYSDSVK | GEAAGTFDL | -0.25 -0.26 -0.08 -0.58 -0.38 -0.35 | 0/18 |
| GFDLNEYGIS | VIYADGRRTFYADSVK | GEVAGTFVS | -0.41 -0.92 -0.87 -1.07 -0.89 -0.98 | 1/18 (1.69) |
| GFDLNEYGIS | VIYADGRRTQYIDSVK | GEQAGTFDY | -0.69 -0.69 -1.45 -1.52 -1.77 -0.46 | 0/18 |
| GFDLNEYGIS | VIYADGRRTFYTDSVK | GEAAGTFDQ | 2.97 ND ND ND ND ND | 0/18 |
| GFDLDEYGIS | VIYADGRRTFYADSVK | GSNAGTFDV | -0.80 -2.17 -0.56 -1.30 -1.90 -1.43 | 0/18 |
| GFDLNEYGIS | VIYADGRRTSYADSVK | GEEAGTFDV | -0.42 -0.13 -0.66 -0.74 -0.41 -0.26 | 1/18 (3.10) |
| GFDLNEYGIS | VIYADGMRTFYADSVK | GQEAGTFDV | -0.45 -0.69 -0.90 -0.86 -0.96 -0.52 | 0/18 |
| GFDLNEYGIS | VIYADGVRTQYIDSVK | GEQAGTFDS | ND 0.80 0.69 ND 0.12 ND | 0/18 |
| GFDLNEYGIS | VIYADGVRTSYVDSVK | GETAGTFDS | -0.19 -0.18 -0.58 -0.79 -0.23 -0.42 | 0/18 |
| GFDLNEYGIS | VIYADGMRTQYIDSVK | GNAAGTFDF | 0.77 0.07 -0.20 -0.81 -0.02 -0.06 | 0/18 |
| GFDLNEYGIS | VIYADGKRKFYADSVK | GENAGTFDV | -0.59 -0.56 -0.74 -0.74 -0.79 -0.63 | 0/18 |
| GFDLNEYGIS | VIYADGRRTFYADNVK | GEVAGTFDQ | -0.23 -0.37 -0.43 -0.45 -0.74 -0.19 | 1/18 (1.48) |
| GFDLNEYGIS | VIYADGRRTAYDDSVK | GQVAGTFDL | -0.04 -0.08 -0.28 -0.64 0.06 -0.23 | 1/18 (1.85) |
| GFDLNEYGIS | VIYADGMRSFYADSVK | GQNAGTFDV | -0.27 -0.46 -0.58 -0.82 -0.38 -0.54 | 0/18 |
| GFDLNEYGIS | VIYADGVRTFYADSVK | GNQAGTFIS | 0.42 0.85 -1.04 -0.39 -0.34 -0.36 | 0/18 |
| GFDLNEYGIS | VIYADGRRTFYADSVK | GNVAGTFDS | -0.30 -0.39 -0.59 -0.56 -0.59 -0.34 | 1/18 (2.32) |
| GFDLNEYGIS | VIYADGRRTFYADSVK | GNTAGTFLT | 0.01 -1.03 -0.22 -0.45 -0.39 -0.43 | 0/18 |
| GFDLNEYGIS | VIYADGRRTFYTDSVK | GQLAGTFDI | -0.15 -0.75 -0.74 -0.79 -0.31 -0.68 | 0/18 |

Repeated from above, the 9 best binders with a signal in all replicates:

CDR-H1,CDR-H2,CDR-H3,"replicates, log10 nM",signal with controls
GFDLDEYGIS,VIYADGRRTFYADSVK,GSNAGTFDV,-0.80 -2.17 -0.56 -1.30 -1.90 -1.43,0/18
GFDLNEYGIS,VIYADGRRTQYIDSVK,GEQAGTFDY,-0.69 -0.69 -1.45 -1.52 -1.77 -0.46,0/18
GFDLDEYGIS,VIYADGRRTFYADSVK,GTNAGTFDL,-1.25 -0.65 -0.91 -1.39 -1.08 -0.99,0/18
GFDLNEYGIS,VIYADGRRTFYADSVK,GEVAGTFVS,-0.41 -0.92 -0.87 -1.07 -0.89 -0.98,1/18 (1.69)
GFDLNEYGIS,VIYADGMRTFYADSVK,GQEAGTFDV,-0.45 -0.69 -0.90 -0.86 -0.96 -0.52,0/18
GFNLNEYGIS,VIYADGRRTFYADSVK,GQVAGTFDV,-0.81 -0.36 -1.18 -0.94 -1.18 0.17,0/18
GFDLNEYGIS,VIYADGKRKFYADSVK,GENAGTFDV,-0.59 -0.56 -0.74 -0.74 -0.79 -0.63,0/18
GFDLNEYGIS,VIYADGRRTFYTDSVK,GAFAGTFDV,-0.52 -0.72 -0.75 -0.79 -0.87 -0.32,0/18
GFDLNEYGIS,VIYADGRRTAYVDSVK,GEAAGTFDQ,-0.24 -0.62 -0.98 -0.71 -0.62 -0.57,0/18

The authors' rule: three or more of the six replicates give a measured affinity, fewer mean a poor binder. The range of this assay differs from that of the first round, and the authors advise against merging the two. The parent sequence was in this pool as ten entries: three were never detected, three once, and four in most replicates, with averages from 0.34 to 2.37. Nonspecific signal, from three strains lacking the peptide, appeared in 1% of pairings of all heavy chain designs, centred on 2.08 (5% of these signals below 0.84); values are not corrected for it. Also given: how often the same scFv was detected with the empty control strains, with their mean in brackets.